These results are taken from PMC7408396, “IPEC-J2 rMdr1a, a New Cell Line with Functional Expression of Rat P-glycoprotein Encoded by Rat Mdr1a for Drug Screening Purposes” (Pharmaceutics, 2020).

The subject of one series is rat Mdr1a P-gp. To be noted: IPEC-J2 rMdr1a monolayers, Figure 5 comparison series.
For series [1] the following is noted: rats, steady-state intravenous brain distribution; cited from earlier work.
The conditions of series [2]: mice; cited from earlier work.

Turning to `Cc1cc2c(s1)Nc1ccccc1N=C2N1CCN(C)CC1` [olanzapine], the efflux ratio with rat Mdr1a P-gp stood at 1.9. Also, in series [1], the “Kp,uu (unbound brain-to-plasma concentration ratio)” value is recorded as 2.13. The “Kp,uu” value in series [2] is 6.9.

As usually defined, the efflux ratio is a quotient of directional permeabilities that is used to spot active efflux.
